The record followed here is EP1068184B1, “N-ARYLOXYETHYLAMINE DERIVATIVES FOR THE TREATMENT OF DEPRESSION” (Wyeth, priority 1998, dated 1999).

Protein sequences, listed by entry. Tags and fused reporters are not part of them.
UniProt P08908, whole entry: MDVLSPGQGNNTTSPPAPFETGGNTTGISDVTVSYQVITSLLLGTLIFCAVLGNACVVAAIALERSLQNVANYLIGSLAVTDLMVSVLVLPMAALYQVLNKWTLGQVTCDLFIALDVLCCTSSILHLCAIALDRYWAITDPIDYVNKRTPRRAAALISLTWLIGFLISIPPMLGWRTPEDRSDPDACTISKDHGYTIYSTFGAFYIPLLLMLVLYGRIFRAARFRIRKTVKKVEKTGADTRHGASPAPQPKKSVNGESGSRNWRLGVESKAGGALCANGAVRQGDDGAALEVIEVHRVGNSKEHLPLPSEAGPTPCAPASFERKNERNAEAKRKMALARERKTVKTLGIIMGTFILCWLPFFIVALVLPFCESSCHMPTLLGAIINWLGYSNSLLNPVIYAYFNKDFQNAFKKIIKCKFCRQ

This experiment concerns the target T1, human 5-HT1A receptor subtype (Homo sapiens, UniProt P08908).
T1 construct: expressed in transfected cells
Description: cAMP formation in forskolin-treated cells (cAMP SPA assay). The experiment is classed as cell-based. The conditions noted are these: forskolin 1 uM, 10 min at 37°C. As to the method:
The PCR cloning of the human 5-HT1A receptor subtype from a human genomic library has been described previously Chanda et al., Mol. Pharmacol., 43:516 (1993). A stable Chinese hamster ovary cell line expressing the human 5-HT1A receptor subtype (5-HT1A.CHO cells) was employed throughout this study. Cells were maintained in DMEM supplemented with 10% foetal calf serum, non-essential amino acids and penicillin/ streptomycin.
The following assays were performed by incubating the cells with DMEM containing 25 mM HEPES, 5 mM theophylline and 10 µM pargyline for a period of 20 minutes at 37°C. Functional activity was assessed by treating the cells with forskolin (1 uM final concentration) followed immediately by test compound (6 concentrations) for an additional 10 min at 37°C. In separate experiments, 6 concentrations of antagonist were preincubated for 20 min prior to the addition of 10 nM 8-OH-DPAT and forskolin. The reaction was terminated by removal of the media and addition of 0.5 ml ice cold assay buffer. Plates were stored at -20°C prior to assessment of cAMP formation by a cAMP SPA assay (Amersham).

`COc1ccccc1OCCN[C@H]1CC[C@H](c2c[nH]c3ccc(F)cc32)CC1` [Example 1b, [(trans)-4-(5-Fluoro-1H-indol-3-yl)-cyclohexyl]-[2-(2-methoxy-phenoxy)-ethyl]-amine] came in with an Emax of 92%.
